The values that follow come from patent US20140128380A1, “METHODS OF MODULATING THE ACTIVITY OF THE MC1 RECEPTOR AND TREATMENT OF CONDITIONS RELATED TO THIS RECEPTOR” (Mimetica Pty Ltd, priority 2009, published 2014).

Amino acid sequences for entries named in this document (tags omitted). A change or cut given only in a name is not applied to a line headed by its entry.
UniProt Q01726: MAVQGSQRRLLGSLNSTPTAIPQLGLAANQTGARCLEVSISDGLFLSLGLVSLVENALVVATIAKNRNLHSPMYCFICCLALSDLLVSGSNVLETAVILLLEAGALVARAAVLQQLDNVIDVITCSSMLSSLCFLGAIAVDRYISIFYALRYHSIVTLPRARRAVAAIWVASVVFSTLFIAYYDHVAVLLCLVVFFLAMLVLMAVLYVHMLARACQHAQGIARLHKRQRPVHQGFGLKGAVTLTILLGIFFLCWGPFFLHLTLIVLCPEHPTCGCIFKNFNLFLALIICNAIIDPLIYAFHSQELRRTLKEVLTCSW

As a reminder, the IC50 is the concentration that gives 50% inhibition.

The target in this test is T1, human MC1R (hMC1R) (Homo sapiens, UniProt Q01726).
T1 construct: purchased Perkin Elmer ES-195-M400UA
Description: Human MC1R radioligand binding assay (displacement of 125I-labeled NDP-MSH, Perkin Elmer hMC1R membranes). As to conditions: displacement of [125I]NDP-MSH, compounds tested as trifluoroacetate or hydrochloride salts or free base. As to the method:
Assessments of compound binding to human MC1R (hMC1R)) by displacement of an ^125I-labeled NDP-MSH receptor ligand peptide were performed essentially as described in the data sheets produced by Perkin Elmer to accompany their frozen hMC1R membranes (Perkin Elmer catalog number ES-195-M400UA).
[^125I] NDP-MSH: radiolabeled in house and purified by HPLC:
Na ^125I (0.5 mCi, 17.4 Ci/mg) was added to 50 μL sodium phosphate (50 mM, pH 7.4) in an eppendorf tube precoated with IODOGEN. After incubation for 10 mins the phosphate buffer containing the iodine was added to NDP-MSH (10 ul at 1 mg/mL) in a separate eppendorf tube. This was incubated for a further 10 mins. The iodinated NDP-MSH was purified by HPLC on a Zorbax SB 300 column using solvent A: 0.05% TFA and solvent B: 90% acetonitrile 0.045% TFA with a linear gradient, 0-67% B over 60 mins. The ^125I NDP-MSH eluted at 52 mins after the unlabeled starting material (48 min) and was counted and stored in the freezer.
Incubation buffer: 25 mM HEPES-KOH (pH 7.0), 1.5 mM CaCl2, 1 mM MgSO4, 0.1 M NaCl, 1 mM 1,10-phenanthroline, and 1 Complete™ protease inhibitor tablet/100 mL (Roche, catalog number 1873580)
Perkin Elmer frozen hMC1 membranes: catalog number ES-195-M400UA, 0.4 mL/vial; 400 microassays/vial, 0.78 mg/mL protein concentration […]
Background: Displacement assays read how much labelled ligand stays bound in the presence of the test substance.

Take `O=C(NC[C@@H]1CCN(CC(c2ccccc2)c2ccccc2)C(=O)[C@H](CCCN2CCCCC2)N1)c1ccc2ccccc2c1` [Compound 106, N-(((3S,5S)-1-(2,2-diphenylethyl)-2-oxo-3-(3-(piperidin-1-yl)propyl)-1,4-diazepan-5-yl)methyl)-2-naphthamide]: the IC50 was below 10 µM.
